Laboratory results reported in PMC10466050, “A comparative study of human and zebrafish glucocorticoid receptor activities of natural and pharmaceutical steroids” (Frontiers in Endocrinology, 2023).

Amino acid sequences for entries named in this document (tags omitted).
UniProt Q1XHK0, entry or part of it: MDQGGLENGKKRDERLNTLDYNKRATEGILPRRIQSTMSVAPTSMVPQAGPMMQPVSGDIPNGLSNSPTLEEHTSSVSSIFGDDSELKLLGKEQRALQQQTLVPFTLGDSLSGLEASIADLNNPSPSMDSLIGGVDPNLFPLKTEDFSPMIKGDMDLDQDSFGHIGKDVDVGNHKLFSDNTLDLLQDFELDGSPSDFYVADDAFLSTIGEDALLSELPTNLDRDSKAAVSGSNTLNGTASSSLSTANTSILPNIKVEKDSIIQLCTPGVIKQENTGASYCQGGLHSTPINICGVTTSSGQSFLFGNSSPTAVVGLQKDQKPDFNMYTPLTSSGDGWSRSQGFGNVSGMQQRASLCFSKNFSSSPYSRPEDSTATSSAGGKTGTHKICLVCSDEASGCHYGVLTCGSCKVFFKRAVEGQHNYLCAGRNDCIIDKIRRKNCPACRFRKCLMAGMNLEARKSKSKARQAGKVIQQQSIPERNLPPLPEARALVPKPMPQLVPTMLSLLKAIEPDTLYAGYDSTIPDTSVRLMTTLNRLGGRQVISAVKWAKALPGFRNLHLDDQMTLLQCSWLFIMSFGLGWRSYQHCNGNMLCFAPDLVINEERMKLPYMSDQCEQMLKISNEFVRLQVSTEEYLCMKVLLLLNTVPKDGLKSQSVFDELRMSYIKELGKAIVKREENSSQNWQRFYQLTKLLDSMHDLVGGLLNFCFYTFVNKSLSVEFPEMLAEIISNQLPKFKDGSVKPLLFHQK

target: zfGR (Danio rerio, UniProt Q1XHK0); test: Antagonistic activity assessment in presence of 3 nM dexamethasone, UMLN-zfGR cells; type: cell-based, zebrafish; conditions: IC50, UMLN-zfGR cells, antagonistic activity, with 3 nM dexamethasone

SMILES | IC50
CC(=O)[C@@]1(O)CC[C@H]2[C@@H]3CCC4=CC(=O)CC[C@]4(C)[C@H]3CC[C@@]21C [17α-hydroxyprogesterone] | 1070 nM
C[C@]12CCC(=O)C=C1CC[C@@H]1[C@@H]2[C@@H](O)C[C@]2(C=O)[C@@H](C(=O)CO)CC[C@@H]12 [aldosterone] | 14000 nM
CC(=O)[C@H]1CC[C@H]2[C@@H]3C=CC4=CC(=O)CC[C@@]4(C)[C@@H]3CC[C@]12C [dydrogesterone] | 3980 nM
C[C@]1(O)CC[C@H]2[C@@H]3CCC4=CC(=O)CCC4=C3C=C[C@@]21C [methyltrienolone] | 2760 nM
C#C[C@]1(O)CC[C@H]2[C@@H]3CCC4=CC(=O)CC[C@@H]4[C@H]3CC[C@@]21C [norethindrone] | 2790 nM
CC(=O)[C@H]1CC[C@H]2[C@@H]3CCC4=CC(=O)CC[C@]4(C)[C@H]3CC[C@]12C [progesterone] | 1230 nM
CC(=O)S[C@@H]1CC2=CC(=O)CC[C@]2(C)[C@H]2CC[C@@]3(C)[C@@H](CC[C@@]34CCC(=O)O4)[C@H]12 [spironolactone] | 7710 nM

same assay, conditions: UMLN-zfGR; with 3 nM dexamethasone; % of maximal luciferase activity induced by 100 nM dexamethasone; at 10^-5M

SMILES | % min act (minimal activity)
CC(=O)[C@@]1(O)CC[C@H]2[C@@H]3CCC4=CC(=O)CC[C@]4(C)[C@H]3CC[C@@]21C [17α-hydroxyprogesterone] | 18 ± 1%
CC(=O)[C@H]1CC[C@H]2[C@@H]3C=CC4=CC(=O)CC[C@@]4(C)[C@@H]3CC[C@]12C [dydrogesterone] | 24 ± 6%
CCOC1=CC2=C(C)CC3C(C(O)CC4(C)C3CC(C)C43OCOC34COCO4)C2(C)CC1 (stereo not drawn) [forbimenol] | 20 ± 4%
C[C@]1(O)CC[C@H]2[C@@H]3CCC4=CC(=O)CCC4=C3C=C[C@@]21C [methyltrienolone] | 19 ± 7%
C#C[C@]1(O)CC[C@H]2[C@@H]3CCC4=CC(=O)CC[C@@H]4[C@H]3CC[C@@]21C [norethindrone] | 16 ± 4%
CC(=O)[C@H]1CC[C@H]2[C@@H]3CCC4=CC(=O)CC[C@]4(C)[C@H]3CC[C@]12C [progesterone] | 10 ± 1%
CC(=O)S[C@@H]1CC2=CC(=O)CC[C@]2(C)[C@H]2CC[C@@]3(C)[C@@H](CC[C@@]34CCC(=O)O4)[C@H]12 [spironolactone] | 32 ± 7%

target: T1, hGR (Homo sapiens, UniProt P04150); test: not given; conditions: HMLN-hGR; with 3 nM dexamethasone; % of maximal luciferase activity induced by 100 nM dexamethasone; at 10^-5M
T1 sequence (P04150 1-777): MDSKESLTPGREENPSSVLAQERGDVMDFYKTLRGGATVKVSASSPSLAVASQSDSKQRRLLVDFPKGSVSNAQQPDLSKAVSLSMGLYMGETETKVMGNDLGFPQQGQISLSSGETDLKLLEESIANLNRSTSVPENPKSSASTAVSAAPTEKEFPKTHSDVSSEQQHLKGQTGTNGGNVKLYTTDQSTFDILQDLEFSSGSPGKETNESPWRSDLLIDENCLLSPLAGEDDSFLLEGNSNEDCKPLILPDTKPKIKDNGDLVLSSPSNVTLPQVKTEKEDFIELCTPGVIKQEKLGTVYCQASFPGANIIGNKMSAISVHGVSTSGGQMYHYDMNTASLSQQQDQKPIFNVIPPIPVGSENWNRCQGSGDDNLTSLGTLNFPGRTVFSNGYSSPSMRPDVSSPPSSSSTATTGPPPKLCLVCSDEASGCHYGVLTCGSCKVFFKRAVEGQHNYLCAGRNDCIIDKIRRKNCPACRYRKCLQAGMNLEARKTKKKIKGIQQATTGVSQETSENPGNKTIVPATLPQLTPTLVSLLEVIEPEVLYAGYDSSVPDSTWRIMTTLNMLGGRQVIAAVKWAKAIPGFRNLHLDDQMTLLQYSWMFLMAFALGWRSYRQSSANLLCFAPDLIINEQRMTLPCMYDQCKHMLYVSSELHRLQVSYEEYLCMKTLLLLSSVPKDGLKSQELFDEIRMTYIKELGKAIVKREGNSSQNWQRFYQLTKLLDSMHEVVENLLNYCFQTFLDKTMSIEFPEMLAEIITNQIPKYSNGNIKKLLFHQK

SMILES | % min act (minimal activity)
CC(=O)[C@@]1(O)CC[C@H]2[C@@H]3CCC4=CC(=O)CC[C@]4(C)[C@H]3CC[C@@]21C [17α-hydroxyprogesterone] | 14 ± 4%
C[C@]1(O)CC[C@H]2[C@@H]3CCC4=CC(=O)CCC4=C3C=C[C@@]21C [methyltrienolone] | 2 ± 1%
CC(=O)S[C@@H]1CC2=CC(=O)CC[C@]2(C)[C@H]2CC[C@@]3(C)[C@@H](CC[C@@]34CCC(=O)O4)[C@H]12 [spironolactone] | 11 ± 4%

target: T1, hGR; test: cell-based; conditions: not given

SMILES | IC50
CC(=O)[C@@]1(O)CC[C@H]2[C@@H]3CCC4=CC(=O)CC[C@]4(C)[C@H]3CC[C@@]21C [17α-hydroxyprogesterone] | 1720 nM
